# Measured values reported in PubChem BioAssay AID504648 (National Center for Advancing Translational Sciences (NCATS), 2011).
# This is a selection; strong and weak results do not stand in their true shares. Results filed as inconclusive are left out. Activity calls are given as the source filed them. The call rests on the fitted dose curve; in most records, active means well fitted inhibition curve with a large enough effect; inconclusive means small, poorly fitted or top-dose-only effect, or effect the other way, or another doubt; inactive means no such curve, though single readings can be large or run the other way.
# Assay: Nrf2 qHTS screen for inhibitors: counterscreen for cytotoxicity
# Conditions: A549 ARE-Fluc cells, CellTiter-Fluor viability, 18-24 h; at 46 µM (top of the series)
# Text: NIH Molecular Libraries Probe Production Network [MLPCN]
# NIH Chemical Genomics Center [NCGC]
# Assay Provider: Shyam Biswal, Johns Hopkins University
# Nrf2 is a transcription factor that maintains cellular redox homoestasis and protects cells from xenobiotics. Nrf2 binds to the antioxidant response element (ARE) to induce gene expression of a broad spectrum of genes that encode for antioxidants. […] Finding a small molecule that act as an inhibitor of Nrf2 function would represent a novel therapeutic target that could lead to improvement in survival of patients undergoing chemo- and/or radio- therapy.
# So here we implemented a counterscreen to weed out the cytotoxic compounds.
# 1. Shibata, T., et al., Genetic Alteration of Keap1 Confers Constitutive Nrf2 Activation and Resistance to Chemotherapy in Gallbladder Cancer. Gastroenterology, 2008.
# 2. Sjoblom, T., et al., The consensus coding sequences of human breast and colorectal cancers. Science, 2006. 314(5797): p. 268-74.
# NCGC Assay Protocol Summary:
# A concentration-response assay was performed with A549 ARE_Fluc cells which are suspended in 5% FBS OPTI-MEM. Five uL were dispensed into 1536-well white TC-treated plate using the Kalypsys dispenser to achieve a density of 5000 cells/well in all columns except column 1. The plate is incubated at 37deg C at 5% CO2 for 2 hours before 23 nL of compounds are added with the Kalypsys pin tool equipped with a 1,536-pin array containing 10-nL slotted pins (FP1S10, 0.457-mm diameter, 50.8 mm long; V&P Scientific). The control compounds Budesonide and Staurosporine are both added at a concentration of 2mM and Budesonide is also added as a 1:10 titration, starting at 200uM, to achieve dose-response. After an 18-24 hour incubation at 37deg C at 5% CO2, 5ul of medium is added to column 1. Afterwards 1ul of 5x of CellTiter-Fluor (Promega) is added to every well. The plate is then incubated at 37deg C at 5% CO2 for 30 minutes before they are read on the ViewLux (Perkin Elmer) for a fluorescent read Ex=405(10)/Em=525(10) for a 3 second exposure, 2x binning, and high gain. Then 3 uL of 3x BugLite is dispensed into all wells and the plate is incubated at ambient room temperature for 15 minutes. Afterwards another ViewLux read is performed using the clear filter to get a luminescent read with the settings of 40 second exposure, 2x binning, and high gain. Cytotoxicity is assessed through the first fluorescent read and then biochemical activity against Nrf2 is measured in the luminescent read.
# On the % scale 0 is the no-effect control and ±100 the full control effect.
row,SMILES,"activity change, negative = cytotoxicity"
1,Cn1c(=O)[nH]cc(N(CCCl)CCCl)c1=O,inactive: -3.59%
2,Cc1cc(N(CCCl)CCCl)ccc1C=O,inactive: -3.88%
3,N/C(=N\O)c1c(N)no[n+]1[O-],inactive: -2.18%
4,O=C(OC1CN2CCC1CC2)c1ccc([N+](=O)[O-])cc1 (stereo unspecified),inactive: -4.44%
5,O=P1(N(CCCl)CCCl)SCCCS1,inactive: 2.41%
6,O=C1C(O)=C([N+](=O)[O-])C(=O)C(O)=C1[N+](=O)[O-],inactive: -2.67%
